This note sets out measurements from PubChem BioAssay AID456 (Sanford-Burnham Center for Chemical Genomics, 2006).

SMILES strings stand for the structures. Only a part is listed here, and it is no random draw. Entries with a potency or affinity are not part of this list. Some of these compounds have results that are not shown, active ones among them. The source made the active and inactive calls.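 The calls were made as follows: active = top tenth filtered wells with inhibition above zero that passed visual or statistical confirmation; inactive = the rest, including hits rejected on review.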

This assay can be described thus: inhibitors of TNFa-induced VCAM-1 surface display, imaging, high-content imaging, pooled HUVEC, TNFa stimulus (AID 456). As to conditions: HUVEC TNFa-induced VCAM-1 surface expression, immunofluorescence imaging.
Regarding `O=C(OC1CN2CCC1CC2)C(CO)(c1ccccc1)c1ccccc1` (stereo unspecified), the molecule was classed as inactive.
